Columns and labels:
[1] = tested on: M1 receptor and/or M1-mEGFP; conditions: 1 mM carbachol, membranes from homozygous M1-mEGFP mice
[2] = tested on: M1 receptor; conditions: transfected cell systems; ref [11], [13]; cited from earlier work

Row | SMILES | increase in bound [^35S]GTPγS compared with WT [1] | effect on dimeric and oligomeric fraction of the M1 receptor [2]
1 | C[N+](C)(C)CCOC(N)=O [carbachol] | not different | 
2 | CN1CCN(CC(=O)N2c3ccccc3C(=O)Nc3cccnc32)CC1 [pirenzepine] |  | increase the dimeric and oligomeric fraction of the M1 receptor

Reference: article PMC9214538, “The M1 muscarinic receptor is present in situ as a ligand-regulated mixture of monomers and oligomeric complexes” (Proceedings of the National Academy of Sciences of the …, 2022)
